# In patent publication US6627635B2, “Method of preventing abuse of opioid dosage forms” (priority 1997, dated 2003):
# How the values were obtained:
# [1] = format: physicochemical; conditions: 5 tablets/5 mL
# [2] = in comparison to a 15 mg dose of hydrocodone
smiles,measurement,setting,value
CN1CC[C@]23c4c5ccc(O)c4O[C@H]2C(=O)CC[C@H]3[C@H]1C5 [Hydromorphone],% Precipitated,[1]; diluent Ethanol,68%
same,% Precipitated,[1]; diluent IPA,99%
same,% Precipitated,[1]; diluent Methanol,34%
same,% Precipitated,[1]; diluent pH 7.2,5%
same,% Precipitated,[1]; diluent pH 7.9,9%
same,% Precipitated,[1]; diluent pH 9.0,10%
same,% Precipitated,[1]; diluent pH 9.9,10%
same,% Precipitated,[1]; diluent pH 11.0,11%
same,% Precipitated,[1]; diluent pH 11.9,12%
same,% Precipitated,[1]; diluent pH 12.9,27%
same,"Equianalgesic Doses of Opioids, Calculated Dose",[2],3.375 mg

# Like-named read-outs stand apart in the source and are kept apart here.
